Values of other authors, collected in article PMC8200100.
Read-outs that look alike come from different tables or passages of the source.

Chains of the proteins cited; added tags and fusions are not shown. Residues count along the entry.
UniProt P04629, 33-423: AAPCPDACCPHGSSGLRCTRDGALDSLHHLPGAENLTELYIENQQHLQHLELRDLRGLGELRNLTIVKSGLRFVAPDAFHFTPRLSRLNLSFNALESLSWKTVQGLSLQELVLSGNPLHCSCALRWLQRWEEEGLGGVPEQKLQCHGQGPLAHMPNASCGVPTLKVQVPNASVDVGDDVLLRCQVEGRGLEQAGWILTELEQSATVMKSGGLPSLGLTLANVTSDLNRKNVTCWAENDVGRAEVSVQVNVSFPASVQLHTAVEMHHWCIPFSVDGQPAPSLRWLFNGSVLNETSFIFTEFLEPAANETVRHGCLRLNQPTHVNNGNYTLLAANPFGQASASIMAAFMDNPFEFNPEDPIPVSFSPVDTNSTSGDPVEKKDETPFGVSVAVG
UniProt P08138, 29-250: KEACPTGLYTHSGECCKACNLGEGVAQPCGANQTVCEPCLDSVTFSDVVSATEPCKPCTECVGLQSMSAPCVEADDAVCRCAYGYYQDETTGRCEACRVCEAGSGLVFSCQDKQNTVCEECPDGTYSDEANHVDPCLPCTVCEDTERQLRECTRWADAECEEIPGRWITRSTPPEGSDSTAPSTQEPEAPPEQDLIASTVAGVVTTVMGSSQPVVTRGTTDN
UniProt P01138, 122-241: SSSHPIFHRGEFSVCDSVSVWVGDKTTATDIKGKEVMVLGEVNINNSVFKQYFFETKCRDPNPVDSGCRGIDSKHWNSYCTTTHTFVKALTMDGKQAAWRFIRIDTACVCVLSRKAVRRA

Assays:
TrkA (Homo sapiens) [1] = target: TrkA (Homo sapiens) (UniProt P04629)
TrkA (Homo sapiens) [2] = target: TrkA (Homo sapiens) (UniProt P04629); remark: listed apart in the source
p75NTR (Homo sapiens) = p75NTR (Homo sapiens) (UniProt P08138)

NGF (from UniProt P01138)
Kd (TrkA (Homo sapiens) [1]): 0.0028 nM | Kd (TrkA (Homo sapiens) [2]): 1.5 nM | Kd (p75NTR (Homo sapiens)): 1.5 nM
